Like-named read-outs stand apart in the source and are kept apart here.
What was measured:
[1] = biological target: T1, bradykinin type 2 (BK2) receptors (Rattus norvegicus, UniProt P25023); conditions: antagonist preincubated for 15 minutes
T1 construct: Uterine horns were removed, placed under a 1 g resting tension in 4 mL tissue baths; from tissue; host or cells: rat uterine horns (Sprague-Dawley, stilbesterol-pretreated)
Description: The standard rat uterus pA2 assay was conducted as follows:
Female Sprague-Dawley rats (200-250 g) were pretreated with stilbesterol (100 μg/kg) and killed 18 hours later by a blow on the head and exsanguinated. Uterine horns were removed, placed under a 1 g resting tension in 4 mL tissue baths containing De Jalon's solution at 31° C. and aerated. […] Antagonist potency was calculated according to the method of Arunlakshana and Schild (Arunlakshana, O., Schild, H. O., Br. J. Pharmacology 14 48-58 (1959)). […] The difference in pD2 values compared to concurrent control reflected the "percentage recovery" of agonist response.

The chains behind the UniProt entries cited, without tags or fusion partners.
UniProt P25023, whole entry: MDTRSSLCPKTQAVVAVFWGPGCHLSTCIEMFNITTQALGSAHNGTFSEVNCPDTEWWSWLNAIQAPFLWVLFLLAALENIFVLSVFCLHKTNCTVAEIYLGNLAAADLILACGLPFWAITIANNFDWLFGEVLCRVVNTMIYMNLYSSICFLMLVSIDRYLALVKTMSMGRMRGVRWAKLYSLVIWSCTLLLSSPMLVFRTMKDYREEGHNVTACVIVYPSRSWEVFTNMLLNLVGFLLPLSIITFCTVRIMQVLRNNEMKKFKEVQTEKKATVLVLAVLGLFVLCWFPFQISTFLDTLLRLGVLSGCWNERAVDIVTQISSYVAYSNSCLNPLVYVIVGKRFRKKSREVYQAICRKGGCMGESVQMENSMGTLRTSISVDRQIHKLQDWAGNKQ
UniProt O70526, whole entry: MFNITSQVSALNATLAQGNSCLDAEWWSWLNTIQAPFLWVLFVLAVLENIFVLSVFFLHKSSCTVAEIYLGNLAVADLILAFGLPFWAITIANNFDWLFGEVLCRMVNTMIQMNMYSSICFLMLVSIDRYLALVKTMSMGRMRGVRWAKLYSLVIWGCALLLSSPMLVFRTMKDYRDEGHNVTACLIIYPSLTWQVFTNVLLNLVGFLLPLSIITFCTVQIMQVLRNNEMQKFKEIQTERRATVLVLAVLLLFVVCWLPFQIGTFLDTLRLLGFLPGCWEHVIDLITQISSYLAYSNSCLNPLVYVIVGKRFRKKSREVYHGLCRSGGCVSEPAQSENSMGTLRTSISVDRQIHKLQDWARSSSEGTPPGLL

[2] = biological target: T2, bradykinin type 2 (BK2) receptors (Cavia porcellus, UniProt O70526); assay: antagonist binding to guinea pig ileum (tritium labeled bradykinin); conditions: read-out: B2 binding (G.P.I.); guinea pig ileum membranes
T2 construct: from tissue; host or cells: guinea pig ileum membrane preparation (Hartley strain)
Description: Radioactivity was determined by liquid scintillation counting.

[3] = biological target: T3, bradykinin type 1 (BK1) receptors (Oryctolagus cuniculus, UniProt P48748); assay: rabbit aorta in vitro B1 antagonist activity; conditions: reversal of des-Arg9-bradykinin contraction of rabbit aorta strips
T3 construct: Spiral strips were mounted under 2 g resting tension in 5 mL tissue baths; from tissue; host or cells: rabbit thoracic aorta spiral strips (New Zealand White)
T3 sequence (P48748 1-352): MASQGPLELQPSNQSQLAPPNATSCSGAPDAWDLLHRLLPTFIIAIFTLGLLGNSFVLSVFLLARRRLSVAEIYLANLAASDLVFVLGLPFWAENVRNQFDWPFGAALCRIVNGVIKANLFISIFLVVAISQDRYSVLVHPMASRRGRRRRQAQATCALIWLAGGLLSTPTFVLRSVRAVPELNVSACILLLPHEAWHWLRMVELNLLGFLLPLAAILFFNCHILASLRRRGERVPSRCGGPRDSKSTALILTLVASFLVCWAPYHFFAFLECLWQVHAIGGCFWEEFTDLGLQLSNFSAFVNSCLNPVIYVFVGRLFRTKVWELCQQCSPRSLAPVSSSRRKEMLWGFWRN
Description: Female New Zealand White rabbits were killed by overdose of pentobarbital (80 mg/kg i.v.) and the thoracic aorta removed. Spiral strips were mounted under 2 g resting tension in 5 mL tissue baths containing Krebs solution (118.3 mM NaCl, 4.7 mM KCl, 2.5 mM CaCl2, 1.2 mM MgSO4 1.2 mM KH2 PO4, 25 mM NaHCO3, 25 mM glucose, and 2.8 μM indomethacin) and aerated with 95% O2 /5% CO2. Two concentration-effect curves for des-Arg^9 -bradykinin were constructed at 1 and 3 hours. At five hours des-Arg^9 -bradykinin was added to the bath to a final concentration of […]. This produced stable, sustained and prolonged contractions of up to 45 minutes.

[4] = tested on: blood pressure responses to vasoactive agents; assay: selectivity of intravenous CP-0597, rabbit blood pressure; format: in vivo; conditions: 0.1 μg/kg/min
Description: Male New Zealand White rabbits were anesthetized with pentobarbital and femoral arteries were cannulated for the recording of blood pressure. Cannulae were placed in the femoral veins for the bolus injection or continuous infusion of compounds. […] Following an equilibration period the specific experimental procedure was started.

[5] = battery of plasma and tissue preparations (stability towards protease enzyme activity); format: in vitro ADME; conditions: plasma, kidney and lung preparations of Table 2
Description: Membrane preparations were stored at -20° C.
The stability assays summarized in Table 2 represent in vitro tests. The actual stability of an individual compound in plasma or kidney or lung tissue in a living animal may vary. However, the in vitro assay provides a reproducible method for comparison of many compounds without sacrificing large numbers of animals for in vivo experimentation. Thus, this battery of plasma and tissue preparations allows a very broad screening for stability of peptides towards protease enzyme activity likely to be encountered by a peptide drug.

Row | Substance | B1 (Rabbit Aorta) [3] | other results
1 | D-Arg-Arg-Pro-Hyp-Gly-Thi-Ser-D-Tic-Oic-Arg [HOE-140, reference compound] | – | B2 pA2 (Rat Uterus) [1]: 10.3; Ki [2]: 1.4 pM
2 | D-Arg-Arg-Pro-Hyp-Gly-Thi-Ser-Igl*-NChg-Arg [Compound 3] | < 5 | B2 pA2 (Rat Uterus) ([1]; 15 min): 6.41 ± 0.49
3 | D-Arg-Arg-Pro-Hyp-Gly-Thi-Ser-D-NBng-Oic-Arg [Compound 6] | < 5 | –
4 | D-Arg-Arg-Pro-Hyp-Gly-Thi-Ser-D-Tic-NChg-Arg [Compound 5] | < 5 | B2 pA2 (Rat Uterus) [1]: 9.5 ± 0.05; B2 pA2 (Rat Uterus) ([1]; listed as CP-0597, 15 min): 9.5; Ki [2]: 1.3 pM; Selectivity (i.v. infusion) [4]: BK2 block only; half-life in all of these tests [5]: greater than six hours
5 | D-Arg-Arg-Pro-Hyp-Gly-Thi-Ser-NPeg-Oic-Arg [Compound 11] | < 5 | –
6 | D-Arg-Arg-Pro-Hyp-Gly-Thi-Ser-D-NBng-NChg-Arg [Compound 7] | < 5 | –
7 | D-Arg-Arg-Pro-Hyp-Gly-Thi-Ser-D-Phe-NChg-Arg [Compound 9] | 5.52 | –
8 | D-Arg-Arg-Pro-Hyp-Gly-Thi-Ser-D-Tic-NCpg-Arg [Compound 8] | < 5 | –
9 | D-Arg-Arg-Pro-Hyp-Gly-Thi-Ser-D-Cpg-NChg-Arg [Compound 10] | 5.34 | –
10 | D-Arg-Arg-Pro-Hyp-Gly-Thi-Ser-D-Tic-NMch-Arg [Compound 12] | < 5 | –
